Key:
[1] = target: Acetylcholinesterase (Homo sapiens) (UniProt P22303); test: Percent reactivation of acetylcholinesterase after 2 hr incubation
[2] = target: Acetylcholinesterase (Homo sapiens) (UniProt P22303); test: Percent reactivation of acetylcholinesterase after 4 hr incubation
[3] = target: Acetylcholinesterase (Homo sapiens) (UniProt P22303); test: Percent reactivation of acetylcholinesterase after 24 hr incubation
[4] = target: Acetylcholinesterase (Homo sapiens) (UniProt P22303); test: Maximum attainable percent reactivation obtained for a range of concentrations of 2M*10e4 HOX and 1M*10e4OX
[5] = target: Acetylcholinesterase (Homo sapiens) (UniProt P22303); test: Maximum attainable percent reactivation obtained for a range of concentrations of 4M*10e4 HOX and 2M*10e4OX
[6] = target: Acetylcholinesterase (Homo sapiens) (UniProt P22303); test: Maximum attainable percent reactivation obtained for a range of concentrations of 20 M*10e4 HOX and 10M*10e4OX
[7] = target: Acetylcholinesterase (Homo sapiens) (UniProt P22303); test: Pseudo first order observed rate constants for reactivation of acetylcholinesterase at 2M*10e4 HOX and 1M*10e4OX; Kobs (min-1 X 10e3)
[8] = target: Acetylcholinesterase (Homo sapiens) (UniProt P22303); test: Pseudo first order observed rate constants for reactivation of acetylcholinesterase at 4M*10e4 HOX and 2M*10e4OX; Kobs (min-1 X 10e3)
[9] = target: Acetylcholinesterase (Homo sapiens) (UniProt P22303); test: Pseudo first order observed rate constants for reactivation of acetylcholinesterase at 20 M*10e4 HOX and 10M*10e4OX; Kobs (min-1 X 10e3)
[10] = target: Acetylcholinesterase (Homo sapiens) (UniProt P22303); test: Ratio of ka to that of kr for reactivation of acetylcholinesterase at concentration of 2M*10e4 [HOX] and 10 Me-1*10e-3 [OX]e-1 was determined
[11] = target: Acetylcholinesterase (Homo sapiens) (UniProt P22303); test: kr for reactivation of acetylcholinesterase at concentration of 2M*10e4 [HOX] and 10 Me-1*10e-3 [OX]e-1 was determined; Expressed as kr, M*10e3
[12] = target: Acetylcholinesterase (Homo sapiens) (UniProt P22303); test: Kr for reactivation of acetylcholinesterase at concentration of 2M*10e4 [HOX] and 10 Me-1*10e-3 [OX]e-1 was determined; Expressed as kr, M*10e4
[13] = target: Acetylcholinesterase (Homo sapiens) (UniProt P22303); test: kb for reactivation of acetylcholinesterase at concentration of 2M*10e4 [HOX] and 10 Me-1*10e-3 [OX]e-1 was determined; Expressed as kb, 1/M 1/min
[14] = target: Acetylcholinesterase (Homo sapiens) (UniProt P22303); test: 1/kmax for reactivation of acetylcholinesterase at concentration of 2M*10e4 [HOX] and 10 Me-1*10e-3 [OX]e-1 was determined; Expressed as 1/kmax, min
[15] = target: Acetylcholinesterase (Homo sapiens) (UniProt P22303); test: ka for reactivation of acetylcholinesterase at concentration of 2M*10e4 [HOX] and 10 Me-1*10e-3 [OX]e-1 was determined; Expressed as ka, 1/min 1*10e3
[16] = target: Acetylcholinesterase (Homo sapiens) (UniProt P22303); test: keff for reactivation of acetylcholinesterase at concentration of 2M*10e4 [HOX] and 10 Me-1*10e-3 [OX]e-1 was determined; Expressed as keff, 1/M 1/min
[17] = target: Acetylcholinesterase (Homo sapiens) (UniProt P22303); test: Kinetic constant was determined for reactivation of acetylcholinesterase at concentration of 4M*10e4 [HOX] and 5Me-1*10e-3 [OX]e-1; (kobsd-ka)e-1, min
[18] = target: Acetylcholinesterase (Homo sapiens) (UniProt P22303); test: keff (rel) for reactivation of acetylcholinesterase at concentration of 2M*10e4 [HOX] and 10 Me-1*10e-3 [OX]e-1 was determined; Expressed as keff (rel)
[19] = target: Acetylcholinesterase (Homo sapiens) (UniProt P22303); test: Kinetic constant was determined for reactivation of acetylcholinesterase at concentration of 2M*10e4 [HOX] and 10 Me-1*10e-3 [OX]e-1; (kobsd-ka)e-1, min
[20] = target: Acetylcholinesterase (Homo sapiens) (UniProt P22303); test: Kinetic constant was determined for reactivation of acetylcholinesterase at concentration of 20 M*10e4 [HOX] and 1Me-1*10e-3 [OX]e-1; (kobsd-ka)e-1, min
[21] = target: Acetylcholinesterase (Homo sapiens) (UniProt P22303); test: Ratio of Kr/kmax for reactivation of acetylcholinesterase at concentration of 2M*10e4 [HOX] and 10 Me-1*10e-3 [OX]e-1 was determined; Expressed as Kr/kmax, M-min*10e2
[22] = target: Acetylcholinesterase (Homo sapiens) (UniProt P22303); test: Ratio of kaKr to that of kr for reactivation of acetylcholinesterase at concentration of 2M*10e4 [HOX] and 10 Me-1*10e-3 [OX]e-1 was determined; Expressed as kaKr/kr; M*10e4
[23] = target: Acetylcholinesterase (Homo sapiens) (UniProt P22303); test: Ratio of [EOP']infinity to that of [EOH]infinity for reactivation of acetylcholinesterase at concentration of 2M*10e4 [HOX] and 10 Me-1*10e-3 [OX]e-1; Expressed as [EOP']infinity/[EOH]infinity
[24] = target: Acetylcholinesterase (Homo sapiens) (UniProt P22303); test: Ratio of [EOP'']infinity to that of [EOH]infinity for reactivation of acetylcholinesterase at concentration of 4M*10e4 [HOX] and 5Me-1*10e-3 [OX]e-1; Expressed as [EOP'']infinity/[EOH]infinity
[25] = target: Acetylcholinesterase (Homo sapiens) (UniProt P22303); test: Ratio of [EOP'']infinity to that of [EOH]infinity for reactivation of acetylcholinesterase at concentration of 20 M*10e4 [HOX] and 1Me-1*10e-3 [OX]e-1; Expressed as [EOP'']infinity/[EOH]infinity

Amino acid sequences for entries named in this document (tags omitted). A change or cut given only in a name is not applied to a line headed by its entry.
UniProt P22303: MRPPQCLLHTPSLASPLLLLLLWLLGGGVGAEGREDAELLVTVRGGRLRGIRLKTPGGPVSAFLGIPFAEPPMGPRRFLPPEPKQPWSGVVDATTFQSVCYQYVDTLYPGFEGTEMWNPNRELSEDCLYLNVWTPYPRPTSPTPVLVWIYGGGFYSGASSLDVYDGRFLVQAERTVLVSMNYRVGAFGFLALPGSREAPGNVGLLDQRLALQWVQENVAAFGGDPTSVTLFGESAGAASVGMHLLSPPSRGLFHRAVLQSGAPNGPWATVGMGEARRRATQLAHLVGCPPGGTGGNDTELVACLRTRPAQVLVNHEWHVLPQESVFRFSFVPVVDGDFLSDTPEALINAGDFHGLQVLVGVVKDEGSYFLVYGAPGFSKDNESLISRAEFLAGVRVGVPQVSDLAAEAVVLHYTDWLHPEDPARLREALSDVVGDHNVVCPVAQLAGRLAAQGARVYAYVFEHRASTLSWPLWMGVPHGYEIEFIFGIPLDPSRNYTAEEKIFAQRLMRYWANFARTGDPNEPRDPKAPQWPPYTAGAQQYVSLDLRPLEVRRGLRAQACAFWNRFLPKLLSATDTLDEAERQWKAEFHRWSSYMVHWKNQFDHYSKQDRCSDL

## COc1ccc(C(=O)/C(=N/O)SCCCN(C)C)cc1
[1]
  Reactivation: 0%
[2]
  Reactivation: 0%
[3]
  Reactivation: 16%

## CCN(CC)CCS/C(=N\O)C(C)=O
[1]
  Reactivation: 13%
[2]
  Reactivation: 28%
[3]
  Reactivation: 23%

## COc1ccc(C(=O)/C(=N/O)SCCN(C(C)C)C(C)C)cc1
[1]
  Reactivation: 4.3%
[2]
  Reactivation: 2.8%
[3]
  Reactivation: 21%

## CCN(CC)CCS/C(=N\O)C(=O)c1ccc(Br)cc1
[1]
  Reactivation: 8%
[2]
  Reactivation: 8%
[3]
  Reactivation: 9%

## CCN(CC)CCS/C(=N\O)C(=O)c1ccccc1
[1]
  Reactivation: 63%
[2]
  Reactivation: 83%
[3]
  Reactivation: 80%
[4]
  Reactivation: 3.19%
[5]
  Reactivation: 3.39%
[6]
  Reactivation: 4.42%
[7]
  k obs: 98.5 s⁻¹
[8]
  k obs: 114 s⁻¹
[9]
  k obs: 184 s⁻¹
[10]
  ka/kr: 0.21
[11]
  kr: 9300 min⁻¹
[12]
  Kr: 13000 M
[13]
  kb: 1.17 M⁻¹ s⁻¹
[14]
  1/kmax: 103 min
[15]
  ka: 2000 min⁻¹
[16]
  k eff: 0.567 M⁻¹ s⁻¹
[17]
  1/kobsd-ka: 190 min
[18]
  k eff (rel): 3.1
[19]
  1/kobsd-ka: 231 min
[20]
  1/kobsd-ka: 106 min
[21]
  Kr/kmax: 140 M-min
[22]
  kaKr/kr: 32000 M
[23]
  [EOP']infinity/[EOH]infinity: 3.12
[24]
  [EOP']infinity/[EOH]infinity: 2.37
[25]
  [EOP']infinity/[EOH]infinity: 0.203

## CC[N+](C)(CC)CCS/C(=N\O)C(=O)c1ccc(OC)cc1
[1]
  Reactivation: 5.6%
[2]
  Reactivation: 9.5%
[3]
  Reactivation: 18%
